Compound activity: PubChem, Broad Institute
Compounds with a hit are over-represented: about 1.9% of the library has one in this group of screens.
ERp5 inh – ERp5 (human) disulfide isomerase inhibition; Q15084; ERp5 insulin aggregation, absorbance 650 nm, 90 min; inhibition, % at 9.99 µM; hit rate 0.05% among 350,000; AID 651711;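 active = mean replicate inhibition above about 25%, with every replicate also reaching it, limit read from the data, passing the limit was not always enough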
UUG fidelity – modulators of start codon recognition fidelity in yeast. S. cerevisiae UUG-firefly luciferase reporter, luminescence/redox ratio. activity score, % at 18.7 µM. 350,000 tested, 0.13% active;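 active = replicate mean at a twofold rise or more, about +100% in these data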;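 note: firefly luciferase made from a UUG start codon reports start codon fidelity; reporter light over untreated wells divided by growth signal over untreated wells; some hits fall short of that in this replicate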
PDI turbidity – inhibitors of human protein disulfide isomerase. PDI insulin aggregation turbidity, A650, 90 min. P07237. inhibition, % at 10 µM. AID 588391. hit rate 0.052% among 350,000;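 active = mean inhibition across replicates of 30% or more, whatever share of single replicates reach that level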
FGF22 binding – shifts melting point of recombinant human FGF22. hit rate 1.5% among 340,000. Q9HCT0. activity (Tm shift, normalised), % at 9.99 µM. recombinant FGF22 thermal shift, SYPRO orange fluorescence; percent of sucrose octasulfate shift, DMSO zero. AID 651658;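 active = mean Tm shift, scaled 0 neutral to 100 positive control, at about 1.3% or above, every replicate too, limit read from the data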
PglD inh – blocks C. jejuni PglD acetyltransferase activity. purified PglD enzyme, DTNB colorimetric CoA detection. inhibition, % at 12.5 µM. hit rate 0.098% among 360,000. AID 602405; in the data active = inhibition above about 16%, passing the limit was not always enough
ARNT TACC3 PPI – disruptors of human ARNT/TACC3 interaction; Q9Y6A5; AlphaScreen His-ARNT PAS-B/GST-TACC3 binding, luminescence; TACC3 fragment carries E629A point mutation; inhibition, % at 9.99 µM; hit rate 0.66% among 390,000;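 active = mean inhibition of replicates at least 50% and at least half of replicates each reaching 50%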;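 also: 0% = complete ARNT plus TACC3 wells and 100% = ARNT alone without TACC3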
Active calls of the source: *; . = no result given.

Every second line gives: ERp5 inh, UUG fidelity, PDI turbidity, FGF22 binding, PglD inh, ARNT TACC3 PPI
(1) COc1ccc(NC(=O)C2(C)Cc3c(-c4ccc5c(c4)OCO5)ccnc3O2)cn1 (centres undefined)
→ 8, 2, -4, 44*, 3, .
(2) C[C@@H]1CN([C@H](C)CO)C(=O)c2cc(NS(=O)(=O)c3ccc(F)cc3)ccc2O[C@H]1CN(C)C(=O)Nc1ccc(F)cc1
→ -3, 4, ., 0, 1, -9
(3) CCOC(=O)C1=C(C)N=c2s/c(=C/c3cccc([N+](=O)[O-])c3O)c(=O)n2C1c1cc(OC)c(OC)c(OC)c1 (centres undefined)
→ 1, 6, 1, 0, -2, 74*
(4) CCOC(=O)C1=C(C)N=c2s/c(=C\c3cccn3C)c(=O)n2C1c1cccc(OC)c1OC (centres undefined)
→ ., 10, 0, ., -14, 18
(5) CCOC(=O)C1=C(C)N=c2s/c(=C/c3cccc([N+](=O)[O-])c3O)c(=O)n2C1c1ccccc1 (centres undefined)
→ 2, -9, 2, -1, 1, 60*
(6) COc1ccc(NC(=O)N(C)C[C@@H]2OCCCC[C@@H](C)Oc3ccc(NC(=O)Nc4c(C)noc4C)cc3C(=O)N([C@H](C)CO)C[C@H]2C)cc1
→ 8, -10, ., 0, 1, -5
(7) CC(=O)Nc1ccc(S(=O)(=O)Nc2nc3ccccc3nc2Nc2ccc(C(=O)O)c(O)c2)cc1
→ 3, -6, 3, ., -7, 40*
(8) C[C@@H]1CN([C@@H](C)CO)C(=O)Cc2cc(NC(=O)Nc3ccc(F)cc3)ccc2O[C@H]1CN(C)Cc1ccc(C(=O)O)cc1
→ 1, -7, ., 0, -2, -2
(9) CC1=NN(c2ccc(C(=O)O)c(N)c2)C(=O)C1
→ 3, ., 11, 0, ., 47*
(10) CC1=NN(c2ccc(Cl)c(C(=O)O)c2)C(=O)C1
→ -7, ., 8, 0, ., 30
(11) CC1=NN(c2ccc([N+](=O)[O-])cc2)C(=O)C1
→ -5, -18, 11, ., -1, 45*
(12) Cc1nc(CN(C)C(=O)c2cc(COc3ccc4ncccc4c3)on2)cs1
→ -5, ., 3, 43*, ., 1
(13) O=C(CC(=O)c1cccc([N+](=O)[O-])c1)Nc1ccccc1Cl
→ 4, ., -2, 44*, ., .
(14) O=C(CCNc1ccccc1)c1cccc([N+](=O)[O-])c1
→ ., ., 1, ., ., -7
(15) C[C@H](O)C#Cc1ccc2c(c1)O[C@@H](CN(C)C(=O)CC1CC1)[C@H](C)CN([C@@H](C)CO)S2(=O)=O
→ -7, -3, ., 0, -1, -3
(16) COc1cc(CCNC2=CC(=O)c3ncccc3C2=O)ccc1O
→ 0, ., 2, 0, ., 37*
(17) CCc1cccc2c(C(=O)COC(=O)c3ccc([N+](=O)[O-])s3)c[nH]c12
→ 4, ., -11, 44*, ., .
(18) O=C([C@@H]1[C@@H](CO)[C@@H]2Cn3c(cccc3=O)[C@H]1N2CC1CCCCC1)N1CCOCC1
→ -3, ., ., 0, 1, 6
(19) Fc1ccc(C(CNC(=S)NC2CCCCC2)N2CCOCC2)cc1 (centres undefined)
→ -2, ., 11, 43*, ., -2
(20) S=C(NCC(c1cccnc1)N1CCOCC1)NC1CCCCC1 (centres undefined)
→ 3, -26, 9, 0, -6, .
(21) O=C(NCc1ccccc1)NC(O)C(Cl)(Cl)Cl (centres undefined)
→ 4, ., -2, 44*, ., -1
(22) CC(C)[C@H](NC(=O)c1ccccc1)C(=O)OCC(=O)/C=C1/N(C)c2ccccc2C1(C)C
→ 0, ., -7, 44*, ., 5
(23) Cc1ccc(NC(=O)c2ccccc2)cc1-n1cnnn1
→ 5, ., -1, 0, ., -2
(24) Cc1ccc(NC(=O)c2ccccc2Cl)cc1-n1cnnn1
→ -3, ., 4, 44*, ., .
(25) O=c1[nH]c(Nc2ccc(F)cc2)cc2ccccc12
→ 13, -83, 4, ., 32*, 38
(26) Cc1ccccc1Nc1cc2ccccc2c(=O)[nH]1
→ ., ., 0, ., ., 24
(27) O=c1[nH]c(Nc2ccccc2Cl)cc2ccccc12
→ 10, -89, -1, 0, 1, 37*
(28) Cc1ccc(S(=O)(=O)N(C)C[C@@H]2Oc3c(NC(=O)c4cc(C)nn4C)cccc3C(=O)N([C@@H](C)CO)C[C@@H]2C)cc1
→ 10, -13, ., 0, 1, .
(29) NCCNc1ccc2nnnn2n1
→ 6, ., 1, 43*, ., -3
(30) c1ccc(CCNc2ccc3nncn3n2)cc1
→ 0, -21, -15, 0, -7, 0

Reprinted at random: 3 records from the list, in no set order.
Every second line gives: ERp5 inh, UUG fidelity, PDI turbidity, FGF22 binding, PglD inh, ARNT TACC3 PPI
(25) O=c1[nH]c(Nc2ccc(F)cc2)cc2ccccc12
→ 13, -83, 4, ., 32*, 38
(6) COc1ccc(NC(=O)N(C)C[C@@H]2OCCCC[C@@H](C)Oc3ccc(NC(=O)Nc4c(C)noc4C)cc3C(=O)N([C@H](C)CO)C[C@H]2C)cc1
→ 8, -10, ., 0, 1, -5
(9) CC1=NN(c2ccc(C(=O)O)c(N)c2)C(=O)C1
→ 3, ., 11, 0, ., 47*

(listing goes on)
Every second line gives: ERp5 inh, UUG fidelity, PDI turbidity, FGF22 binding, PglD inh, ARNT TACC3 PPI
(31) COCCN(C(=O)/C=C/c1ccccc1)c1c(N)n(Cc2ccccc2)c(=O)[nH]c1=O
→ -7, ., 9, 43*, ., -4
(32) COCCN(C(=O)/C=C/c1cccc([N+](=O)[O-])c1)c1c(N)n(Cc2ccccc2)c(=O)[nH]c1=O
→ 0, -6, -2, 0, -2, 4
(33) Cc1cc(=O)[nH]c2c3ccccc3nn12
→ -3, ., -6, 44*, ., -5
(34) Nc1nn2c(C(F)(F)F)cc(=O)[nH]c2c1N=Nc1cccc(F)c1
→ ., ., -1, ., ., -2
(35) Cc1cc(C)n2nc3ccccc3c2n1
→ ., -14, 15, ., 4, -6
(36) Cc1cc(=O)[nH]c2c(N=Nc3ccc(O)cc3)c(N)nn12
→ 5, -2, 8, 0, -2, 47*
(37) CC(C)NS(=O)(=O)c1ccc(OCC(=O)Nc2cccc(F)c2)cc1
→ -3, -6, 2, 43*, 0, -15
(38) CC(C)NS(=O)(=O)c1ccc(OCC(=O)Nc2ccc3c(c2)OCO3)cc1
→ 19, ., -4, 0, ., 3
(39) C1=CCN(c2nc(N3CCOCC3)nc(N3CCCc4ccccc43)n2)CC1
→ 5, -7, -4, 44*, 0, .
(40) CCSC1=NCCN1S(=O)(=O)c1ccc(Cl)cc1
→ 0, ., 22, 43*, ., -8
(41) CCSC1=NCCN1S(=O)(=O)c1ccccc1
→ 2, ., -5, 44*, ., 3
(42) O=S(=O)(c1ccccc1)N1CCN=C1SCc1ccccc1
→ 4, ., -9, 0, ., .
(43) CSC1=NCCN1S(=O)(=O)c1ccc(Cl)cc1
→ 4, ., 9, 0, ., 2
(44) N#C[C@@H]1[C@H](c2ccccc2-c2cccc(F)c2)[C@H](CO)N1C(=O)NC1CCCCC1
→ 1, ., ., ., ., .
(45) CCOc1cc(/C=N/n2cnnc2)ccc1OCC(=O)Nc1ccccc1OC
→ ., -5, 0, ., -2, -7
(46) CCOc1cc(/C=N/n2cnnc2)ccc1OS(=O)(=O)c1ccc(C)cc1
→ -3, ., -19, 44*, ., 7
(47) O=C(N[C@H]1CC[C@@H](CCNC(=O)c2ccccc2F)O[C@H]1CO)c1ccc2c(c1)OCO2
→ -9, -1, ., 0, 1, -18
(48) CCc1n[nH]c(=S)n1/N=C/C(C)=C\c1ccccc1
→ -2, -8, -5, 0, -3, 6
(49) CCc1n[nH]c(=S)n1N=C1CCC(C)CC1 (centres undefined)
→ -2, -22, 7, 43*, 10, 10
(50) COC(=O)CC(NC(=O)c1ccc(C)cc1)c1ccc2c(c1)OCO2 (centres undefined)
→ ., -3, -6, ., 2, -2

Arranged by number of heavy atoms (falling): some entries from above.
Every second line gives: ERp5 inh, UUG fidelity, PDI turbidity, FGF22 binding, PglD inh, ARNT TACC3 PPI
(44) N#C[C@@H]1[C@H](c2ccccc2-c2cccc(F)c2)[C@H](CO)N1C(=O)NC1CCCCC1
→ 1, ., ., ., ., .
(41) CCSC1=NCCN1S(=O)(=O)c1ccccc1
→ 2, ., -5, 44*, ., 3
(35) Cc1cc(C)n2nc3ccccc3c2n1
→ ., -14, 15, ., 4, -6
